Results reported in US10618930B2, “Compounds for the treatment of cancer” (Eisai R&D Management Co., Ltd., priority 2017, dated 2020).

Experiments:
CT26 tumor cells = conditions: 10 mg/kg intratumorally, a single time
GL261 mouse glioma cells = conditions: 10 mg/kg intratumorally, a single time
[1] = into the sc tumor, overall survival

SMILES: O=[P@]1(S)OC[C@H]2O[C@@H]3[C@H](F)[C@@H]2O[P@](=O)(S)OC[C@H]2O[C@H]([C@H](F)[C@@H]2O1)n1cnc2c(ncnc21)NC/C=C/CNc1ncnc2c1ncn23 [Compound 1a]
- activity towards the local sc tumors (CT26 tumor cells): potent activity
- curative systemic activity (treated animals) (CT26 tumor cells; [1]): 9 of 10
- activity at local sc tumors (GL261 mouse glioma cells): potent activity
- curative systemic activity (treated animals) (GL261 mouse glioma cells; [1]): 5 of 8
